Experimental data taken from patent US20040197858A1.

Target: thrombomodulin
Experiment: apparent dissociation constant for thrombomodulin (K dapp); method not described

| Kd [nM] | Substance |
| --- | --- |
| 1.3 | purified recombinant α-thrombin (from UniProt P00734 328-363; P00734 364-622) (enzyme) |
| 1.4 | purified α-thrombin derived from plasma (from UniProt P00734 328-363; P00734 364-622) (enzyme) |
